Assay results: patent US9403822B2, “Apoptosis-inducing agents for the treatment of cancer and immune and autoimmune diseases” (AbbVie Inc., priority 2010, dated 2016)

By UniProt entry, the sequences of proteins in these tests, tags left out.
UniProt P10415, whole entry: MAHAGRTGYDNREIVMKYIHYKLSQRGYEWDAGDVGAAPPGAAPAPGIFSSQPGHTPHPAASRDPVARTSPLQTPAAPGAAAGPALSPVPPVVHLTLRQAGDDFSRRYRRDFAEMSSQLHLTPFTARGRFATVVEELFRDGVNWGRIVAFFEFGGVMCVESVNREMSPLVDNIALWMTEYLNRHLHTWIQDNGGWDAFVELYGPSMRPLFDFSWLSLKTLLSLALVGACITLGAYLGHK

Target: GST-Bcl-2 (Homo sapiens (Human), UniProt P10415)
Test: Time Resolved-Fluorescence Resonance Energy Transfer (TR-FRET) Bcl-2 binding assay
Details: F-Bak peptide probe 100 nM, GST-Bcl-2 1 nM, Tb-anti-GST 1 nM; Wang's equation
Procedure: Determination of the utility of compounds having Formula (I) as binders to and inhibitors of anti-apoptotic Bcl-2 proteins was performed using the Time Resolved-Fluorescence Resonance Energy Transfer (TR-FRET) Assay. Tb-anti-GST antibody was purchased from Invitrogen (Catalog No. PV4216). Representative compounds were serially diluted in dimethyl sulfoxide (DMSO) starting at 50 μM (2× starting concentration; 10% DMSO) and 10 μL were transferred into a 384-well plate. […] For each assay, the probe/antibody and protein/probe/antibody were included on each assay plate as negative and positive controls, respectively. Fluorescence was measured on the ENVISION plate reader (Perkin Elmer) using a 340/35 nm excitation filter and 520/525 (F-Bak peptide) and 495/510 nm (Tb-labeled anti-Histidine antibody) emission filters. Inhibition constants (Ki) are shown in TABLE 2 below and were determined using Wang's equation (Wang Z.-X. An Exact Mathematical Expression For Describing Competitive Binding Of Two Different Ligands To A Protein Molecule. FEBS Lett. 1995, 360:111-4).

| Ki [nM] | Substance |
| --- | --- |
| < 0.01 | (5-{5-(4-{[2-(4-chlorophenyl)-4,4-dimethylcyclohex-1-en-1-yl]methyl}piperazin-1-yl)-2-[({4-[(4-fluorotetrahydro-2H-pyran-4-yl)methoxy]-3-nitrophenyl}sulfonyl)carbamoyl]phenoxy}-7H-pyrrolo[2,3-b]pyridin-7-yl)methyl dihydrogen phosphate [Example 3] |
| < 0.01 | trans-4-[(4-{[4-(4-{[2-(4-chlorophenyl)-4,4-dimethylcyclohex-1-en-1-yl]methyl}piperazin-1-yl)-2-(1H-pyrrolo[2,3-b]pyridin-5-yloxy)benzoyl]sulfamoyl}-2-nitrophenoxy)methyl]cyclohexyl dihydrogen phosphate [Example 5] |
